Earlier results as cited in PMC6222470.

Molecular target: histone H4 H4K5acK8ac peptide (Homo sapiens) (UniProt P62805)

BRDT BD1 (from UniProt Q58F21)
Kd: 13 µM
